Compound activity as filed in PubChem.
This is a sample that favours compounds with a hit; in the whole collection about 3.7% have one here.
A549 tox: A549 cytotoxicity, counter-screen for Nrf2 inhibitors; A549 ARE-Fluc cells, CellTiter-Fluor viability, 18-24 h; Potency, µM (series often up to 46 µM), for inactives: top-dose activity change, negative = cytotoxicity, hits mostly inhibitors; 390,000 compounds, 0.16% hits; note: potency is the fitted concentration of half-maximal effect; % is set by controls: 0 for no effect and ±100 for the full control effect
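A549 ARE-Fluc cells in 5% FBS OPTI-MEM, 5000 cells/well, rested 2 h then exposed to compounds in concentration-response for 18-24 h at 37 °C. Viability by CellTiter-Fluor fluorescence (Ex 405/Em 525) after 30 min; luciferase luminescence (BugLite, 15 min, RT) read afterwards.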
Nrf2 inh: Nrf2 pathway inhibition | A549 ARE-Fluc reporter, luciferase luminescence, 18-24 h | 360,000 compounds, 2.1% hits | Potency, µM (series often up to 46 µM), without a hit: top-dose activity change, negative = inhibition, hits mostly inhibitors; note: potency is the fitted concentration of half-maximal effect; % is set by controls: 0 for no effect and ±100 for the full control effect; nearly all actives have a fitted effect of over 60% in size
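Reporter: ARE-Fluc in A549. Exposure: 18-24 h, 37 °C, 5% CO2, 5% FBS OPTI-MEM. Readouts: fluorescent cytotoxicity (CellTiter-Fluor), then luminescent Nrf2 signal after BugLite.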
Nrf2 activator: activators of Nrf2 (ARE) signaling; AREc32 ARE-luciferase reporter (MCF7-derived line), luminescence, 24 h; Potency, µM (highest dose often 46.1 µM), without a hit: at the highest dose activation, actives largely listed as activators; 410,000 compounds, 0.31% hits; AID 624171; note: potency is the fitted concentration of half-maximal effect; % of control where 0% means no effect; nearly all actives have a fitted effect of over 65% in size
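For detection, Steady-Glo was added and plates sat 30 min at RT; before that, AREc32_Fluc cells grown overnight in OPTI-MEM/5% FBS had been treated with 23 nL compound for 24 hr at 37 deg C.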
miR-21 reporter: miR-21 reporter, rising signal | 340,000 tested, under 10 active | AID 2288 | HeLa miR-21 FLuc reporter, luciferase, 48 h | Potency, µM (titrated, usually from 38.3 µM), for inactives: at the highest dose reporter change, positive = more light; active = well fitted rising curve with a large enough effect; inconclusive = small, poorly fitted or top-dose-only effect; inactive = no such curve, though single readings can be large or run the other way;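 further: % of control where 0% means no effect; miR-21 action dims this reporter so a rising signal means less miR-21 action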
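HeLa miR-21-FLuc reporter line, endogenous miR-21; 2000 cells/well in DMEM/10% FBS; compound titration up to ~40uM final, 48 h, 37 degree Celsius; luciferase detection reagent, 15 min lysis, CCD luminescence.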
p53 reactivation: mutant p53 re-activation in reporter cells | H1299 p53-A138V BP100-luciferase reporter, luminescence, 24 h | Potency, µM (series often up to 92.2 µM), inactives show at the top dose activity change, positive = activation, hits mostly activators | 320,000 compounds, 0.063% hits; note: potency is the fitted concentration of half-maximal effect; % of control where 0% means no effect; nearly all actives have a fitted effect of over 45% in size
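H1299 (p53-null), stable ts p53-A138V + BP100-Luc; 1000 cells/well, Opti-MEM/10% FBS; cpd 4 pt, 1:5; 24 h, 37 deg C, 5% CO2; detection reagent 10 min RT; luminescence.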
ClpP mod: qHTS Assay for Activators of ClpP; ATP-dependent Clp protease proteolytic subunit (Bacillus subtilis (strain 168)), P80244; purified B. subtilis ClpP, FRET peptide cleavage, 20 min; Potency, µM (series often up to 57.5 µM), inactives show at the top dose activity change, negative = active; 340,000 compounds, 1.9% hits; AID 651965, 2013; active = well fitted falling curve with a large enough effect; inconclusive = small, poorly fitted or top-dose-only effect; inactive = no such curve, though single readings can be large or run the other way; note: potency is the fitted concentration of half-maximal effect; the source files actives as falling curves though it sought activators and does not explain the sign; nearly all actives have a fitted effect of over 65% in size
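Purified B. subtilis ClpP, 10 microg/mL final in Tris/HCl pH8 with KCl, BSA, glycerol and Tween-20, cleaved an Abz/nitrotyrosine-quenched decapeptide. Fluorescence (ex 320, em 430) was read at 0 and 20 min at room temperature. Delta was normalized to 5.8 microM ADEP and DMSO/no-enzyme controls.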
* = called active by the depositor; u = inconclusive; x = no result given; [ ] = remark or other dose. Unless noted, calls come from the whole dose curve; as a rule, active = well fitted curve in the direction sought with a large enough effect; inconclusive = small, poorly fitted or top-dose-only effect, or another doubt; inactive = no such curve, though single readings can be large; an effect the other way counts as inactive or inconclusive.

The chains behind the UniProt entries cited, without tags or fusion partners.
ATP-dependent Clp protease proteolytic subunit (Bacillus subtilis (strain 168)), P80244, UniProt P80244, whole entry, looked up: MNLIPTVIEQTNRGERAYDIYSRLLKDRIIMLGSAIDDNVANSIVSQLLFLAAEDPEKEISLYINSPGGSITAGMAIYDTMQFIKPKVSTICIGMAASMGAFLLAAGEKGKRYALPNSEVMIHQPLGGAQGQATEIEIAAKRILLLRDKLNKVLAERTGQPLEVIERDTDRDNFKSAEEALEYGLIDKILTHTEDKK

smiles	A549 tox	Nrf2 inh	Nrf2 activator	miR-21 reporter	p53 reactivation	ClpP mod
COCCCNC(=O)C1CCN(Cc2cc3ccccc3n2Cc2cccc(Cl)c2)CC1	-17%	x	4%	30%	x	-1%
CCOc1ccc(CC(=O)NCCS(=O)(=O)N2CCN(c3ccc(OC)cc3)CC2)cc1	-1%	x	-2%	0%	x	1%
Cc1nc2ccc([N+](=O)[O-])cc2c(=O)n1Cc1ccc(Cl)cc1	-4%	-14%	0%	3%	x	1%
c1ccc(OCCn2c(COc3ccccc3)nc3ccccc32)cc1	1%	4%[9.27 µM]	4%	-17%	x	-6%
CC(C)(C)c1ccc(Cn2c(Cc3ccccc3)nc3ccccc32)cc1	-11%	23µM*	4%	25%	x	-1%
Cc1cccc(Cn2c(Cc3ccccc3)nc3ccccc32)c1	-5%	u	4%	-3%	-20%	1%
Cc1nc2ccc(N)cc2c(=O)n1Cc1ccc(Cl)cc1	1%	21%	2%	-35%	19%	35µM*
Cc1nc2ccccc2n1CCOc1ccccc1	-3%	15µM*	0%	5%	x	-2%
Cn1cccc1-c1nc2ccccc2n1Cc1ccccc1	-5%	-15%	-1%	3%	-2%	28µM*
COc1cc(Cl)c(CC(=O)NO)cc1OC	x	x	x	x	x	2%
Cc1nc2ccccc2n1Cc1ccc(Cl)cc1	9%	18µM*	4%	9%	11%	-11%
O=C(NCCc1nc2ccccc2n1CCOc1ccccc1)C1CCCCC1	u	26µM*	x	x	x	-3%
CCOc1ccc(S(=O)(=O)n2c(C)nc3ccccc32)cc1	-10%	-30%	0%	-5%	0%	-2%
COc1ccc(CNc2nc3ccccc3n2Cc2ccc(Cl)cc2)cc1OC	-16%	23µM*	4%	14%	-4%	0%
CCCCOc1ccc(S(=O)(=O)n2c(C)nc3ccccc32)cc1	-18%	7.3µM*	0%	1%	8%	-1%
CCCCOC(=O)c1cccc(NC(=O)c2cc3ccccc3o2)c1	-1%	u	-2%	9%	x	u
N#Cc1nc(NCC2CC2)nc(Nc2ccccc2)n1	-7%	-1%	x	x	x	x
CCOC(=O)c1ccc(N2C(=O)C3C(C2=O)C(C(=O)c2ccc(Cl)cc2)N2CCCC32)cc1 (stereo not given)	-16%	14%	14µM*	-9%	-23%	-4%
CS(=O)CC(O)(c1ccc(F)cc1)C1CC1 (stereo not given)	x	x	0%	x	x	1%
CC(=O)c1cccc(NC(=O)C(OC(=O)/C=C/c2ccc3c(c2)OCO3)c2ccccc2)c1 (stereo not given)	17%	u	-1%	-3%	10%	28µM*
O=C(CCCc1nc(-c2ccc(Cl)cc2)no1)Nc1cccnc1	x	10µM*	-1%	22%	-5%	-1%
Cc1cccc(-c2noc(CCCC(=O)Nc3cccnc3)n2)c1	-4%	u	-1%	14%	-3%	-1%
COc1cc(/C=C2\SC(=S)N(Nc3ccccc3)C2=O)ccc1O	-22%	u	29%	-53%	u	28µM*
Cc1ccc2nc(Cl)cc(=O)n2c1	6%	-10%	0%	x	x	28µM*

The listing continues.
Every second line gives: A549 tox, Nrf2 inh, Nrf2 activator, miR-21 reporter, p53 reactivation, ClpP mod
CCC1(C)Cc2ccccc2C(Nc2c(C)n(C)n(-c3ccccc3)c2=O)=N1 (stereo not given)
    2%, 4%, -2%, -1%, 0%, 14µM*
Cc1c(NC2=NC3(CCCCC3)Cc3ccccc32)c(=O)n(-c2ccccc2)n1C
    9%, 5%, 0%, -2%, -20%, -4%
COc1cccc(OCCSc2nc3ccccc3n2CC(=O)N2CCOCC2)c1
    -6%, u, 0%, 19%, x, 0%
COc1cccc(OCCSc2nc3ccccc3n2CC(=O)N2CCCCC2)c1
    -15%, 18µM*, 1%, 20%, x, -1%
CC(=O)N=c1sc2ccccc2n1C
    -8%, 9%, 0%, -18%, 3%, 1%
CC(=O)N=c1sc2nc3ccccc3nc2n1N(C(C)=O)C(C)=O
    u, u, 0%, -2%, 1%, 28µM*
CCN(CC)S(=O)(=O)c1ccc(C(=O)Nc2ccc(Cc3ccncc3)cc2)cc1
    0%, 21µM*, 1%, u, -4%, x
COc1ccc(C(=O)OCC(N)=O)cc1[N+](=O)[O-]
    2%, 3%, 0%, -4%, 6%, 28µM*
COc1ccc(C(=O)Nc2ccc(OC)c([N+](=O)[O-])c2)cc1Br
    -26%, 21µM*, 0%, -14%, -3%, 2%
COc1ccc(C(=O)Nc2ccc(Cc3ccncc3)cc2)cc1Br
    u, 18µM*, 4%, -3%, -5%, -1%
COc1ccc(C(=O)Nc2cccc([N+](=O)[O-])c2)cc1Br
    -24%, u, 3%, x, x, 0%
Cc1ccc(C)c(Cn2c(=O)n(CCCC(=O)NCCc3ccc(Cl)cc3)c(=O)c3ccccc32)c1
    1%, 11%, -1%, -2%, x, -2%
CCOc1ccccc1CNC(=O)CCCN1C(=O)CCn2nc(-c3cccn3C)cc21
    7%, x, 1%, 0%, x, 3%
O=C(CSCc1ccccc1Cl)Nc1c[nH]c(=O)[nH]c1=O
    1%, -2%, 0%, -5%, -6%, 28µM*
O=C(CSCc1ccc(Cl)c(Cl)c1)Nc1c[nH]c(=O)[nH]c1=O
    -7%, -21%, 0%, -1%, 6%, 13µM*
CCn1c(-c2cc3c(C(F)(F)F)nn(C)c3s2)n[nH]c1=S
    -3%, -17%, 3%, -16%, 2%, 28µM*
Cn1c(-c2cc3c(C(F)(F)F)nn(C)c3s2)n[nH]c1=S
    -5%, -15%, 4%, -16%, -1%, u
O=C(Cn1nc(-c2ccccc2)nc(Cc2ccccc2)c1=O)Nc1ccc(Cl)cc1
    -8%, x, -1%, 7%, x, 1%
Cc1noc(C)c1S(=O)(=O)N1CCC(C(=O)N2CCN(c3cccc(C(F)(F)F)c3)CC2)CC1
    -15%, 18µM*, 0%, 26%, x, -1%
Cc1noc(C)c1S(=O)(=O)N1CCC(C(=O)N2CCN(c3ccccc3)CC2)CC1
    2%, -20%, 0%, 2%, x, -1%
Cc1ccc(C)c(N2CCN(C(=O)C3CCCN(S(=O)(=O)c4c(C)noc4C)C3)CC2)c1 (stereo not given)
    3%, 16µM*, 0%, 8%, -1%, -1%
COc1cccc(/C=C/c2onc(C)c2S(=O)(=O)N2CCC(C(=O)N3CCC(C)CC3)CC2)c1
    -7%, x, 0%, 11%, x, 32µM*
CCOc1ccc2nc(NC(=O)C3CCCN(S(=O)(=O)c4c(C)noc4C)C3)sc2c1 (stereo not given)
    -26%, 21µM*, 0%, -11%, 2%, 0%

Random excerpt: 5 records from the list.
Every second line gives: A549 tox, Nrf2 inh, Nrf2 activator, miR-21 reporter, p53 reactivation, ClpP mod
Cc1noc(C)c1S(=O)(=O)N1CCC(C(=O)N2CCN(c3cccc(C(F)(F)F)c3)CC2)CC1
    -15%, 18µM*, 0%, 26%, x, -1%
Cc1c(NC2=NC3(CCCCC3)Cc3ccccc32)c(=O)n(-c2ccccc2)n1C
    9%, 5%, 0%, -2%, -20%, -4%
CCN(CC)S(=O)(=O)c1ccc(C(=O)Nc2ccc(Cc3ccncc3)cc2)cc1
    0%, 21µM*, 1%, u, -4%, x
O=C(NCCc1nc2ccccc2n1CCOc1ccccc1)C1CCCCC1
    u, 26µM*, x, x, x, -3%
O=C(Cn1nc(-c2ccccc2)nc(Cc2ccccc2)c1=O)Nc1ccc(Cl)cc1
    -8%, x, -1%, 7%, x, 1%
